Measured values published in patent US20200138840A1, “PHARMACEUTICAL COMPOSITION AND TUMOR IMMUNOACTIVITY PROMOTER” (SENTAN Pharma inc., priority 2017, published 2020).

Assay: Side effects in Example 1: body weight, meals, blood glucose, serological profiles, liver weight
Format: in vivo, nude mice (BALBc-nu/nu)
Settings: day 21; sorafenib 5 mg/kg/day orally
Description: Six-week-old nude mice (male, BALBc-nu/nu mice) were subcutaneously transplanted with 1×10^7 Huh-7 cells. In order to confirm the survival and growth of the transplanted cells, the measurement of tumor size was carried out using a pair of vernier calipers. At the time point when the tumors in the mice had reached a volume of from 100 to 150 mm^3, the mice were divided into the following six groups.
(b) Low dose 2DG group: 100 mg/kg/day of a 100 mg/mL 2DG solution, prepared by dissolving 2DG in PBS, was administered intraperitoneally every day.
(c) High dose 2DG group: 1,000 mg/kg/day of the 100 mg/mL 2DG solution was administered intraperitoneally every day. […]
In each of the groups, the tumor volume and the body weight of the mice were measured every 3 days from the start of administration. At the time points of 7 days, 14 days and 21 days after the start of administration, the average amount of meals taken per day was calculated from the amount of meals taken in the previous week. On day 14 after the start of administration, blood was collected from the mice in the high dose 2DG group at a predetermined time, and the blood glucose level was measured using Glucocard (trademark) MyDia (manufactured by Arkray, Inc.). […] The serological profiles of the collected blood samples were measured using SPOTCHEM (trademark) EZ SP-4430 system (manufactured by Arkray, Inc.). […]

CNC(=O)c1cc(Oc2ccc(NC(=O)Nc3ccc(Cl)c(C(F)(F)F)c3)cc2)ccn1 [Sorafenib, sorafenib]
Liver weight: 1.19 ± 0.1 g
